Reference: PubChem BioAssay AID938 (National Center for Advancing Translational Sciences (NCATS), 2007)
What follows is the remainder of the data, with few or none of the hits. Records with an inconclusive call do not appear. Activity calls are given as the source filed them. The call rests on the fitted dose curve; in most records, active means well fitted activation curve with a large enough effect; inconclusive means small, poorly fitted or top-dose-only effect; inactive means no such curve, though single readings can be large or run the other way.

Test: qHTS Assay for Agonists of the Thyroid Stimulating Hormone Receptor: Activators of Intracellular cAMP Concentrations in Parental HEK 293; further: % of control where 0% means no effect; nearly all actives have a fitted effect of over 55% in size
Conditions: parental HEK293 CNG cAMP sensor, membrane potential fluorescence; at 25.6 µM (top of the series)
Description: NIH Chemical Genomics Center [NCGC]
NIH Molecular Libraries Screening Centers Network [MLSCN]
PI Name: Dr. Marvin Gershengorn
This cell based assay utilized a cyclic nucleotide gated ion channel (CNG) as a biosensor for cAMP induction. HEK 293 cells stably expressing the modified CNG were purchased from BD biosciences (http://www.atto.com/products/actone/features_benefits.shtml) . Stimulation of cAMP production causes the CNG to open and subsequent membrane depolarization to occur. A fluorescent membrane potential dye (BD biosciences) was utilized to detect cAMP stimulation in cells.
The cells were maintained in DMEM medium (Invitrogen) containing 10 % FBS (Hyclone), 100 units/ml Penicillin, 100 ug/ml Streptomycin (Invitrogen), and 250 ug/ml Geneticin (Invitrogen) and 1 ug/ml Puromycin (Invitrogen) at 37C in 5% CO2. […]
High Throughput Screening. […] 23 nl/well compound or control was then added to the assay plates, which were incubated for additional 30 min before reading a Envision fluorescence plate reader (Perkin Elmer) in bottom-read mode for fluorescence intensity (emission at 590 nm).
Keywords: cAMP, CNG Ion Channel, quantitative high throughput screening, qHTS, HTS, probe identification, CNG, cAMP, cyclic nucleotide gated ion channel PubChem

SMILES | activation
c1ccc2[nH]c(-c3cscn3)nc2c1 | inactive: 1.33%
